Assay results taken from US20220110919A1, “METHODS OF MODULATING LEUKOCYTES ACTIVATION AND THROMBOCYTE CLEARANCE WITH INHIBITORS OF SPECIFIC NEURAMINIDASE ISOENZYMES” (The Governors of the University of Alberta, priority 2018, published 2022).

Sequences of proteins named here, by UniProt entry; tags and fusion partners are left off.
UniProt Q9Y3R4, whole entry: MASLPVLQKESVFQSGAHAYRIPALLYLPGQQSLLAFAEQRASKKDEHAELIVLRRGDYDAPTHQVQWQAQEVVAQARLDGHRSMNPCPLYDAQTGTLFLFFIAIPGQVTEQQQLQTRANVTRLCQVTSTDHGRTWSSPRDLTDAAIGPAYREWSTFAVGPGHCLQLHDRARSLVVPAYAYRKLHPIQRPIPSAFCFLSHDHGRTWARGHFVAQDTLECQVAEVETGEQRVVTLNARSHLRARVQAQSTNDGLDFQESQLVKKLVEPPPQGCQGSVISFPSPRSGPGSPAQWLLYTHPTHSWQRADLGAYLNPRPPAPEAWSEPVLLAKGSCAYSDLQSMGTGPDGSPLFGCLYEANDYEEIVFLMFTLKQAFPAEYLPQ
UniProt Q9UQ49, whole entry: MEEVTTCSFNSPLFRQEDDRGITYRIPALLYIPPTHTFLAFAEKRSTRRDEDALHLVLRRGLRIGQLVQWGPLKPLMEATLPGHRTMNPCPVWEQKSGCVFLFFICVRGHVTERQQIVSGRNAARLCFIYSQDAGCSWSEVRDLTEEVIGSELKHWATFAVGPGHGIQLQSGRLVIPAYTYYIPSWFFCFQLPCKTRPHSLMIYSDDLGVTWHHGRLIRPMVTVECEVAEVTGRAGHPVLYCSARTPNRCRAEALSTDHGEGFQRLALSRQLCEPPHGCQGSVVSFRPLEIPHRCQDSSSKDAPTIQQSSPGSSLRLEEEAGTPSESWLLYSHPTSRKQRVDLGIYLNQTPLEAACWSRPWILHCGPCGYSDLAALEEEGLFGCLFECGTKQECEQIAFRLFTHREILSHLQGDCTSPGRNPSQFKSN
UniProt Q8WWR8, whole entry: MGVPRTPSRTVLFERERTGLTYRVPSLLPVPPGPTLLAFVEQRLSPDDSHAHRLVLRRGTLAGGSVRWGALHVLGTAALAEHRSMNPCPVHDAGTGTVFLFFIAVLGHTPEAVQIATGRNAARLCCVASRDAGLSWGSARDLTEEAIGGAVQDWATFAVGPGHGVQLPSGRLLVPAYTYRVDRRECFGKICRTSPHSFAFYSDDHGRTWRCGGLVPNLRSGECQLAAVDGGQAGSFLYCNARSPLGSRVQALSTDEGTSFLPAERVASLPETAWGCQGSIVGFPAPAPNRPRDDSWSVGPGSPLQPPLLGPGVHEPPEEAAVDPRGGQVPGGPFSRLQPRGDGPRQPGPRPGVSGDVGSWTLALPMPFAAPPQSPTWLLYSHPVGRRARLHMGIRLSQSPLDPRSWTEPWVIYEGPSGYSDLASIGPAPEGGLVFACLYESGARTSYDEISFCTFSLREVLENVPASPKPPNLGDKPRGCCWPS

What was measured:
Format in all cases: biochemical
NEU2 = NEU2 (Homo sapiens, UniProt Q9Y3R4); test: Inhibition assay, 4MU-NANA cleavage, NEU2; conditions: read-out: IC50 NEU2; 4MU-NANA as the substrate; pH 5.5
NEU1 = NEU1 (Homo sapiens, UniProt Q99519); test: Inhibition assay, 4MU-NANA cleavage, NEU1; conditions: read-out: IC50 NEU1; 4MU-NANA as the substrate; pH 4.5
NEU3 = NEU3 (Homo sapiens, UniProt Q9UQ49); test: Inhibition assay, 4MU-NANA cleavage, NEU3; conditions: read-out: IC50 NEU3; 4MU-NANA as the substrate; pH 4.5
NEU4 = NEU4 (Homo sapiens, UniProt Q8WWR8); test: Inhibition assay, 4MU-NANA cleavage, NEU4; conditions: read-out: IC50 NEU4; 4MU-NANA as the substrate; pH 4.5

SMILES	IC50 (NEU2) [µM]	IC50 (NEU1) [µM]	IC50 (NEU3) [µM]	IC50 (NEU4) [µM]
CC(=O)N[C@H]1[C@H]([C@H](O)[C@H](O)CNC(=O)c2ccc(-c3ccccc3)cc2)OC(C(=O)O)=C[C@@H]1O	90			
[N-]=[N+]=NCC(=O)N[C@H]1[C@H]([C@H](O)[C@H](O)Cn2cc(-c3ccc(-c4ccccc4)cc3)nn2)OC(C(=O)O)=C[C@@H]1O	9.2	88	0.49	0.83
